C2C12 statin = suppressors of simvastatin-induced myotoxicity in C2C12 myotubes; hit rate 0.78% among 330,000; rescue of ATP level, % at 7.49 µM; ATP luminescence, 48 h; scaled: DMSO 0, geranylgeraniol control 100;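 active = mean ATP rescue above about 67%, or every replicate alone reaching that limit, limit read from the data, passing the limit was not always enough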;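 note: myotubes were challenged with 10 µM simvastatin during compound exposure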
Cneo AK release = Cryptococcus neoformans lysis via adenylate kinase release; C. neoformans lysis, adenylate kinase release luminescence, 4 h; normalised: neutral wells 0, clomiphene wells 100; lysis activity, % at 15 µM; hit rate 0.2% among 360,000; AID 651654;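 active = mean lysis activity across replicates of at least 80%, whatever share of replicates individually reach that level; inactive = mean lysis activity below 80%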
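Test system: log-phase Cryptococcus neoformans yeast cells; Quantity: yeast cell density of 5 × 10^6 cells/mL; Buffer or medium: YPD; Doses: single compound concentration per well; Timing: 4 h at 37 °C static, read 1 h later; Measured by: AK luminescence; Read-out basis: lysis from increased AK signal; Control set: Clomiphene as positive control.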
Rtt109 HAT inh = C. albicans Rtt109 histone acetyltransferase inhibition | purified Rtt109/Vps75, ThioGlo CoA-SH fluorescence, 4 h | inhibition, % at 34.9 µM | Q5AAJ8 | hit rate 0.16% among 330,000;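 active = inhibition of at least 50% in every replicate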
CDK5 inh = CDK5/p35 (human) kinase inhibition; Recombinant CDK5/p35, ADP-Glo luminescence, 60 min; Q00535+Q15078; AID 488839; inhibition, % at 10 µM; hit rate 0.01% among 330,000;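 active = highest replicate inhibition of at least 50% and at least 75% of replicates reaching 50%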;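 note: plate controls were DMSO neutral control for no effect and GW8510 at 10 µM for full effect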
Yeast UUG start-1 = modulators of yeast start codon fidelity, primary screen, whole organism, S. cerevisiae, single point, plate reader; S. cerevisiae UUG-firefly luciferase reporter, luminescence/redox ratio; activity score, % at 18.7 µM; actives 0.13% (n = 350,000); AID 602363, 2012;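 active = replicate mean at a twofold rise or more, about +100% in these data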;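 also: firefly luciferase made from a UUG start codon reports start codon fidelity; reporter light over untreated wells divided by growth signal over untreated wells; some hits fall short of that in this replicate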
Yeast UUG start-2 = alters UUG start codon use in yeast | S. cerevisiae UUG-start firefly luciferase, luminescence, 4 h; 100% means double the DMSO signal | shares compounds with Yeast UUG start-1 | 540 tested, under 10 active | activation, % at 38 µM | AID 652061;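 active = signal increase whose fitted curve reaches an absolute level of 40 at a concentration under 10 µM; inactive = activity opposite to the expected increase, or the rest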
Numbers without * were called inactive; i = inactive; . = not tested or not shown. In the library only some 1% were active in any assay of this set; here they are far more common.

Short forms – A = C2C12 statin; B = Cneo AK release; C = Rtt109 HAT inh; D = CDK5 inh; E = Yeast UUG start-1; F = Yeast UUG start-2
1) COc1ccc(S(=O)(=O)Nc2cccc3c2O[C@@H](CN(C)C(=O)Nc2ccc(F)cc2)[C@@H](C)CN([C@@H](C)CO)C3=O)cc1
  A = -59	B = 2	C = .	D = .	E = 4	F = .
2) CCC(=O)N(C)C[C@H]1Oc2cc(-c3ccc(F)cc3)ccc2S(=O)(=O)N([C@@H](C)CO)C[C@@H]1C
  A = -18	B = 55	C = .	D = .	E = 19	F = .
3) COC(=O)C[C@@H]1C=C[C@@H](NC(=O)c2ccccc2)[C@H](CO)O1
  A = -5	B = 48	C = .	D = .	E = -2	F = .
4) O=C(C[C@H]1CC[C@H](NC(=O)CN2CCOCC2)[C@H](CO)O1)NC1CCCCC1
  A = 12	B = -4	C = .	D = .	E = -1	F = .
5) Cn1nc(CC(=O)Nc2cccc3ncccc23)c2ccccc2c1=O
  A = -11	B = 1	C = 3	D = 1	E = -13	F = -4
6) CN1C(=O)c2cc(NC(=O)c3cscn3)ccc2OC[C@H]2O[C@H](CC(=O)NCC3CC3)CC[C@@H]21
  A = -17	B = -2	C = .	D = .	E = 8	F = .
7) Cc1ccc(S(=O)(=O)Nc2cccc3c2O[C@@H](CN(C)C(=O)Nc2ccc(C(F)(F)F)cc2)[C@H](C)CN([C@H](C)CO)C3=O)cc1
  A = -12	B = 2	C = .	D = .	E = 2	F = .
8) Cc1cc(C)c[n+](C2=C([O-])c3ccccc3C(=O)/C2=N\S(=O)(=O)c2cccs2)c1
  A = .	B = .	C = .	D = 0	E = .	F = .
9) Cc1cc[n+](C2=C([O-])c3ccccc3C(=O)/C2=N\S(=O)(=O)c2cccs2)cc1C
  A = 8	B = -2	C = .	D = -2	E = 446*	F = 0
10) Cc1ccc(S(=O)(=O)N[C@@H]2CC[C@@H](CCn3cc(-c4cccc(F)c4)nn3)O[C@@H]2CO)cc1
  A = -6	B = -5	C = .	D = .	E = -6	F = .
11) CCCC#Cc1cnc2c(c1)C(=O)N([C@H](C)CO)C[C@@H](C)[C@@H](CN(C)C(=O)C1CCCCC1)O2
  A = -2	B = .	C = .	D = .	E = 52	F = .
12) CCOc1ncccc1C(=O)OCC(=O)Nc1cc(S(=O)(=O)N(CC)CC)ccc1C
  A = .	B = .	C = 8	D = 1	E = .	F = .
13) CCN(CC)S(=O)(=O)c1ccc(C)c(NC(=O)COC(=O)C=C(C)C)c1
  A = -6	B = 2	C = -9	D = -2	E = 180*	F = 1
14) O=C(Cc1c(F)cccc1Cl)Nc1ccccc1-c1ccccc1
  A = -2	B = -3	C = 6	D = -1	E = 540*	F = -7
15) O=C(Cc1ccccc1F)Nc1ccccc1-c1ccccc1
  A = .	B = .	C = -1	D = 0	E = .	F = .
16) COc1cccc(C(=O)Nc2ccc3c(c2)C(=O)N(C)C[C@@H](OC)[C@H](C)CN(CC2CC2)[C@@H](C)CO3)c1
  A = 17	B = -5	C = .	D = .	E = 3	F = .
17) CCN(C[C@H]1[C@@H](c2ccccc2)[C@@H](CO)N1C(C)=O)C(=O)c1ccccn1
  A = 4	B = 3	C = .	D = .	E = 127*	F = i
18) CN(N=Nc1ccccc1C(=O)O)C1CCCCC1
  A = 33	B = 1	C = .	D = .	E = 169*	F = -5
19) CN(C(=O)c1ccccc1Cl)C1CCCCC1
  A = 5	B = -1	C = 15	D = -1	E = -13	F = .
20) CC1C/C(=C/c2ccncc2)C(=O)/C(=C/c2ccncc2)C1 (configuration not stated)
  A = 9	B = 1	C = 0	D = 1	E = 302*	F = -28
21) O=C(CNC(=S)NC(=O)C1CCCCC1)c1ccccc1
  A = -35	B = -1	C = 2	D = 1	E = 523*	F = 2
22) C[C@@H]1CCCCO[C@H](CN(C)S(C)(=O)=O)[C@H](C)CN([C@@H](C)CO)C(=O)c2cc(N(C)C)ccc2O1
  A = -26	B = -1	C = .	D = .	E = 0	F = .
23) O=C(O)Cc1csc(NC(=O)c2ccco2)n1
  A = .	B = 1	C = 1	D = 0	E = 373*	F = 10
24) Cc1csc(NC(=O)c2ccco2)n1
  A = 17	B = 0	C = -1	D = -1	E = -20	F = .
25) C[C@@H]1CN([C@@H](C)CO)C(=O)c2cc(NC(=O)Cc3ccccc3)ccc2O[C@H]1CN(C)S(=O)(=O)c1ccc(F)cc1
  A = -31	B = -2	C = .	D = .	E = -4	F = .
26) O=C(N[C@@H]1CC[C@H](CCn2cc(C3(O)CCCC3)nn2)O[C@@H]1CO)C1CCCCC1
  A = 1	B = 1	C = .	D = .	E = 7	F = .
27) O=C(N[C@H]1CC[C@H](CCn2cc(C3(O)CCCC3)nn2)O[C@H]1CO)C1CCCCC1
  A = 7	B = -2	C = .	D = .	E = 162*	F = i
28) O=C(NCC[C@H]1CC[C@H](NC(=O)C2CCCCC2)[C@H](CO)O1)c1cnccn1
  A = 3	B = 0	C = .	D = .	E = 158*	F = i
29) O=S(=O)(N[C@H]1CC[C@@H](CCn2cc(C3(O)CCCC3)nn2)O[C@@H]1CO)c1ccc(F)cc1
  A = -6	B = -4	C = .	D = .	E = 178*	F = i
30) CCCc1cc(=O)[nH]c(SCC(=O)c2cc(C)n(-c3cc(C)on3)c2C)n1
  A = 7	B = .	C = -1	D = 1	E = .	F = -2
31) Cc1cc(-n2c(C)cc(C(=O)CSc3nc(N)cc(=O)[nH]3)c2C)no1
  A = -5	B = -3	C = 39	D = 0	E = -8	F = 5
32) C[C@@H]1CCCCO[C@@H](CN(C)C(=O)C2CCCCC2)[C@@H](C)CN([C@H](C)CO)C(=O)c2cc(NC(=O)CCCN(C)C)ccc2O1
  A = 13	B = 49	C = .	D = .	E = 8	F = .
33) CC(=O)NCCCc1nc2ccccc2n1Cc1ccccc1F
  A = 1	B = -2	C = -6	D = 0	E = 174*	F = -4
34) C[C@@H]1CN([C@H](C)CO)C(=O)c2cc(NC(=O)Cc3ccccc3)ccc2O[C@@H](C)CCCCO[C@H]1CN(C)C
  A = 33	B = .	C = .	D = .	E = .	F = .
35) C[C@@H]1CN([C@@H](C)CO)C(=O)c2cc(C#C[C@@H](C)O)cnc2O[C@@H]1CN(C)Cc1ccccn1
  A = -3	B = -5	C = .	D = .	E = -25	F = .
36) C#CCOCCOCCOCCNc1nc(N2CCN(C(=O)[C@H](CC(N)=O)n3cc(C(N)[C@H](C)CC)nn3)CC2)nc(N2CCN(C(=O)[C@H](CC(N)=O)n3cc(C(N)[C@@H](C)CC)nn3)CC2)n1 (some centres not stated)
  A = 2	B = 1	C = 24	D = -1	E = 108*	F = -1
37) C#CCOCCOCCOCCNc1nc(N2CCN(C(=O)[C@H](CC(N)=O)n3cc(C(N)[C@@H](C)CC)nn3)CC2)nc(N2CCN(C(=O)[C@H](CCCCN)n3cc([C@@H](N)CC(N)=O)nn3)CC2)n1 (some centres not stated)
  A = 7	B = -1	C = 13	D = 2	E = 8	F = .
38) COc1ccc(S(=O)(=O)Nc2ccc3c(c2)C(=O)N([C@H](C)CO)C[C@@H](C)[C@H](CN(C)C(=O)CCC(F)(F)F)OCCCC[C@@H](C)O3)cc1
  A = .	B = 1	C = .	D = .	E = 5	F = .
39) CCCN1C[C@H](C)[C@H](OC)CN(C)C(=O)c2cc(NS(=O)(=O)c3cn(C)cn3)ccc2OC[C@H]1C
  A = -1	B = 45	C = .	D = .	E = 0	F = .
40) C[C@@H]1CCCCO[C@H](CN(C)C(=O)Nc2ccc(F)cc2)[C@@H](C)CN([C@H](C)CO)C(=O)c2cc(NC(=O)Nc3ccc4c(c3)OCO4)ccc2O1
  A = -26	B = 0	C = .	D = .	E = 6	F = .
41) NCCCC[C@@H]1NC(=O)[C@H](CCC(=O)O)NC(=O)c2cc([N+](=O)[O-])cc(I)c2SC[C@@H](C(=O)NCC(N)=O)NC1=O
  A = 4	B = -2	C = -1	D = -1	E = 119*	F = 10
42) CC(C)(C)C(=O)COC(=O)c1ccc(O)cc1
  A = -11	B = 9	C = 0	D = 3	E = 387*	F = 20

Whole records, quoted from the list. Screens in order: C2C12 statin, Cneo AK release, Rtt109 HAT inh, CDK5 inh, Yeast UUG start-1, Yeast UUG start-2
Results for `Cc1cc(-n2c(C)cc(C(=O)CSc3nc(N)cc(=O)[nH]3)c2C)no1` → -5, -3, 39, 0, -8, 5
Results for `C[C@@H]1CCCCO[C@@H](CN(C)C(=O)C2CCCCC2)[C@@H](C)CN([C@H](C)CO)C(=O)c2cc(NC(=O)CCCN(C)C)ccc2O1` → 13, 49, ., ., 8, .
Results for `CC(=O)NCCCc1nc2ccccc2n1Cc1ccccc1F` → 1, -2, -6, 0, 174*, -4

Compound activity deposited in PubChem by Broad Institute.
